Assay results taken from ChEMBL document CHEMBL4118173, “Discovery of benzimidazole derivatives as orally active renin inhibitors: Optimization of 3,5-disubstituted piperidine to improve pharmacokinetic profile” (Bioorg Med Chem, 2018).

Sequences of proteins named here, by UniProt entry; tags and fusion partners are left off. A change or cut given only in a name is not applied to a line headed by its entry.
UniProt P00797: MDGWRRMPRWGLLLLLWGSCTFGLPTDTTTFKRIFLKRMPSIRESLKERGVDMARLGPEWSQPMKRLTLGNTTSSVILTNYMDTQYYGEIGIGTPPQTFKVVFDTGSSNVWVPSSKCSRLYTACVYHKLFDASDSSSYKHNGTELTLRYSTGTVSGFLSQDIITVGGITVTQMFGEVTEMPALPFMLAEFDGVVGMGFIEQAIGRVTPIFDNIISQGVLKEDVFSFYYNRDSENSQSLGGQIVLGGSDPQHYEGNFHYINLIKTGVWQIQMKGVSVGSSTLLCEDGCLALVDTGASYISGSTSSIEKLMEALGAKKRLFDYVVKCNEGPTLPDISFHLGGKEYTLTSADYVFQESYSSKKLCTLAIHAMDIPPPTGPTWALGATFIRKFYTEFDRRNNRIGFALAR

How the values were obtained:
[1] = target: T1, Renin (Homo sapiens, UniProt P00797)
[2] = target: T1, Renin; remark: listed apart in the source
[3] = target: T1, Renin; remark: listed apart in the source

- pIC50 [1]: 9.37
- pIC50 [2]: 9.08
- pIC50 [3]: 8.85
SMILES: COCCCCn1c(C(=O)N(CC(C)C)[C@@H]2CNC[C@H](C(=O)N3CCOCC3)C2)nc2ccccc21

pIC50: −log10 of the molar value.
